From US20110225663A1, “METHOD FOR PRODUCING EUKARYOTIC ORGANISMS WITH ENHANCED PATHOGEN RESISTANCE AND/OR RESISTANCE TO STRESS AND EUKARYOTIC TRANSGENIC ORGANISMS WITH ENHANCED PATHOGEN RESISTANCE AND/OR RESISTANCE TO STRESS” (WESTFAELISCHE WILHELMS-UNIVERSITAET MUENSTER, priority 2008, published 2011)

Test system: NC(=O)c1ccc[n+]([C@@H]2O[C@H](COP(=O)(O)OP(=O)(O)OC[C@H]3O[C@@H](n4cnc5c(N)ncnc54)[C@H](OP(=O)(O)O)[C@@H]3O)[C@@H](O)[C@H]2O)c1
Assay: purified protein, by the assay type
Conditions: pH 8.0; 37.0 °C

Arabidopsis thaliana glucose-6-phosphate dehydrogenase isoform At1g24280 (P2 class), N-terminally truncated without transit peptide (cP2, 5′ delta 195 bp) (Arabidopsis thaliana)
Km: 2.4 µM
